Assay results: US9861706B2, “GLP-1 receptor agonist peptide gastrin conjugates” (priority 2011, dated 2018)

Protein sequences, listed by entry. Tags and fused reporters are not part of them. Residues count along the entry.
UniProt P43220, 24-463: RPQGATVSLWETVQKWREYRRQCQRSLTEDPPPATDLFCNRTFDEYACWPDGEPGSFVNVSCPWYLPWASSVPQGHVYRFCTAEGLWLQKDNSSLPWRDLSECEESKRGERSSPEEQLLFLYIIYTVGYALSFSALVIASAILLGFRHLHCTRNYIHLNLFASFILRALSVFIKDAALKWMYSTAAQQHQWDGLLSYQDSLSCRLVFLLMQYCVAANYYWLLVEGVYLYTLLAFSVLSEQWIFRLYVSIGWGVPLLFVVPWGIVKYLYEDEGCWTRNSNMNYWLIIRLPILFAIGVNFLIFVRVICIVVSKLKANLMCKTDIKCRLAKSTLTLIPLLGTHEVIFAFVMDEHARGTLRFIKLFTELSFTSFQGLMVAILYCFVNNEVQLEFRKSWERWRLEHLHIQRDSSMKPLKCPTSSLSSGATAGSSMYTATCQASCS

What was measured:
human CCK-B R = target: T1, human CCK-B R (Homo sapiens, UniProt P32239); assay: CCK-B receptor (CCK-B R) efficacy assay, AlphaScreen SureFire p-ERK in HEK293 cells; format: cell-based
T1 construct: expressed in transfected cells
T1 sequence (P32239 1-447): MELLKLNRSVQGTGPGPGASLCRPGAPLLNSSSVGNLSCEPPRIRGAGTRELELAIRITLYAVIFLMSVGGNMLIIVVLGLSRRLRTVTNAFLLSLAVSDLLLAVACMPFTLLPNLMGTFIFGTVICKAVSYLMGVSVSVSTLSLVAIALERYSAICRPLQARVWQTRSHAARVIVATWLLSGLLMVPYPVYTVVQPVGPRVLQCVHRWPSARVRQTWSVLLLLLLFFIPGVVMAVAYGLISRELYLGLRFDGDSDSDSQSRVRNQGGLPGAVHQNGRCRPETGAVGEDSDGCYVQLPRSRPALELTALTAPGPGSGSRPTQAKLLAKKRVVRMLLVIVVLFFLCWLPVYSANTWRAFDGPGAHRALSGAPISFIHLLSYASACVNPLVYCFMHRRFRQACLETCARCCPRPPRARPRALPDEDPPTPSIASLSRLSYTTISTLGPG

human GLP-1 R = target: T2, human GLP-1 R (Homo sapiens, UniProt P43220); assay: Human GLP-1 receptor (GLP-1 R) efficacy assay, cAMP induction in HEK293 cells; format: cell-based
T2 construct: expressed in transfected cells

Row | SMILES | pEC50 (human CCK-B R) | pEC50 (human GLP-1 R)
1 | CCCCCCCCCCCCCCCC(=O)N[C@@H](CCC(=O)NCCCC[C@H](NC(=O)[C@H](CCC(=O)O)NC(=O)[C@@H](NC(=O)[C@H](Cc1ccccc1)NC(=O)[C@H](CC(C)C)NC(=O)[C@H](CCCNC(=N)N)NC(=O)[C@@H](NC(=O)[C@H](C)NC(=O)[C@H](CCC(=O)O)NC(=O)[C@H](CCC(=O)O)NC(=O)[C@H](CCC(=O)O)NC(=O)[C@H](CC(C)C)NC(=O)[C@H](Cc1ccc(O)cc1)NC(=O)[C@H](CCCCN)NC(=O)[C@H](CO)NC(=O)[C@H](CC(C)C)NC(=O)[C@H](CCC(=O)O)NC(=O)[C@H](CO)NC(=O)[C@@H](NC(=O)[C@H](Cc1ccccc1)NC(=O)[C@@H](NC(=O)CNC(=O)[C@H](CCC(=O)O)NC(=O)CNC(=O)[C@@H](N)Cc1c[nH]cn1)[C@@H](C)O)[C@@H](C)O)C(C)C)[C@@H](C)CC)C(=O)N[C@@H](CC(C)C)C(=O)N[C@@H](CCCCN)C(=O)NCCOCCOCC(=O)N[C@@H](CCC(N)=O)C(=O)N[C@@H](CCC(N)=O)C(=O)N[C@@H](Cc1ccc(O)cc1)C(=O)NCC(=O)N[C@@H](Cc1c[nH]c2ccccc12)C(=O)N[C@@H](CC(C)C)C(=O)N[C@@H](CC(=O)O)C(=O)N[C@@H](Cc1ccccc1)C(N)=O)C(=O)O [Compound 8] | 7.68 | 9.10
2 | CC[C@H](C)[C@H](NC(=O)[C@H](Cc1ccccc1)NC(=O)[C@H](CC(C)C)NC(=O)[C@H](CCCNC(=N)N)NC(=O)[C@@H](NC(=O)[C@H](C)NC(=O)[C@H](CCC(=O)O)NC(=O)[C@H](CCC(=O)O)NC(=O)[C@H](CCC(=O)O)NC(=O)[C@H](CC(C)C)NC(=O)[C@H](Cc1ccc(O)cc1)NC(=O)[C@H](CCCCN)NC(=O)[C@H](CO)NC(=O)[C@H](CC(C)C)NC(=O)[C@H](CCC(=O)O)NC(=O)[C@H](CO)NC(=O)[C@@H](NC(=O)[C@H](Cc1ccccc1)NC(=O)[C@@H](NC(=O)CNC(=O)[C@H](CCC(=O)O)NC(=O)CNC(=O)[C@@H](N)Cc1c[nH]cn1)[C@@H](C)O)[C@@H](C)O)C(C)C)C(=O)N[C@@H](CCC(=O)O)C(=O)N[C@@H](Cc1ccccc1)C(=O)N[C@@H](CC(C)C)C(=O)N[C@@H](CCCCN)C(=O)NCCOCCOCC(=O)N[C@@H](CCC(N)=O)C(=O)N[C@@H](CCC(N)=O)C(=O)N[C@@H](Cc1ccc(O)cc1)C(=O)NCC(=O)N[C@@H](Cc1c[nH]c2ccccc12)C(=O)N[C@@H](CC(C)C)C(=O)N[C@@H](CC(=O)O)C(=O)N[C@@H](Cc1ccccc1)C(N)=O [Compound 11] | 7.23 | 10.01

pEC50: −log10 of the molar value.
